Measured values published in ChEMBL document CHEMBL4507265 (2021).

The chains behind the UniProt entries cited, without tags or fusion partners. Where a name states a change or a piece, a line headed by the entry shows the natural chain unless it says otherwise.
UniProt O43683: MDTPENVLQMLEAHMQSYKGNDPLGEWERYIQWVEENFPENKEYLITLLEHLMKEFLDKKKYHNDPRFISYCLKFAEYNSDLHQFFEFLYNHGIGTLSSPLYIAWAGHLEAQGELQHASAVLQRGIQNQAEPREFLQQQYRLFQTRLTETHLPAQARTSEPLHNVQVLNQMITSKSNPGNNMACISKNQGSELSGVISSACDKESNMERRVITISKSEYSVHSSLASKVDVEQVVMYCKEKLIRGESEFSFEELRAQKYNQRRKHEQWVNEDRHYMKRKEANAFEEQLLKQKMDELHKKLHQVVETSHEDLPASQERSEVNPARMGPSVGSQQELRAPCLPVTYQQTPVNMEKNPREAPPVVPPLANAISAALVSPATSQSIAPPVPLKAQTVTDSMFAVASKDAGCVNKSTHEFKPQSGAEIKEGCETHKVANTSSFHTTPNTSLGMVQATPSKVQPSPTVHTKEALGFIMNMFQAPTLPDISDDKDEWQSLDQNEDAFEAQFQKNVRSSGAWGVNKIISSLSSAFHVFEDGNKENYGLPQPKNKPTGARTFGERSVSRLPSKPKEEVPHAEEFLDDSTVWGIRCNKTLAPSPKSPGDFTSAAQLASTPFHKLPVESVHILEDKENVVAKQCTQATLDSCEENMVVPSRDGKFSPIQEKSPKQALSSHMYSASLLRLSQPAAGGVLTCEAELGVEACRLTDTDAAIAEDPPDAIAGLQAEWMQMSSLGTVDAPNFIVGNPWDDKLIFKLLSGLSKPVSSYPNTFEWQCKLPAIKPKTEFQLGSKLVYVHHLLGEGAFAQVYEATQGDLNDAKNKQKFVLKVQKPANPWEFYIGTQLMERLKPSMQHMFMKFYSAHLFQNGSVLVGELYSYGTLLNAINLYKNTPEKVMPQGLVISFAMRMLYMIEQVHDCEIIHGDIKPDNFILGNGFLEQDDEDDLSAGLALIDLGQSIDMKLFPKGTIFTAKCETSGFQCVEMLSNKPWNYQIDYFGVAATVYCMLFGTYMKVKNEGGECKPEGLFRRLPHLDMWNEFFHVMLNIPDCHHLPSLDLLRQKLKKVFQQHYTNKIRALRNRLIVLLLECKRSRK

Columns and labels:
[1] = target: Mitotic checkpoint serine/threonine-protein kinase BUB1 (Homo sapiens) (UniProt O43683); details: Compound concentration 1000.0 nM
[2] = test system: Epidermal growth factor receptor (Homo sapiens), P00533 [UNDEFINED MUTATION]; details: Compound concentration 1000.0 nM

## NS(=O)(=O)c1cc(NC(=O)Cc2ccccc2)ccc1Oc1cccc(Cl)c1 [BAY-1797]
[1]
  residual activity: 1.6%
[2]
  residual activity: 47%
